# Only a part is listed here, and it is no random draw. Some results for these compounds are left out of this collection, so the calls shown say nothing about other tests. Inconclusive results are not listed. Calls of active or inactive are those of the source. The call rests on the fitted dose curve; in most records, active means well fitted activation curve with a large enough effect; inconclusive means small, poorly fitted or top-dose-only effect; inactive means no such curve, though single readings can be large or run the other way.
# Test: qHTS assay for re-activators of p53 using a Luc reporter; further: % of control where 0% means no effect; nearly all actives have a fitted effect of over 45% in size
# Details: H1299 p53-A138V BP100-luciferase reporter, luminescence, 24 h; at 92.2 µM (top of the series)
# Description: The p53 tumor suppressor plays a key role in suppression of tumorigenesis and in human carcinogenesis. It is frequently found inactivated in human cancers, mainly by point mutation. These point mutations are found in a wide variety of human cancers and a majority of them affect the DNA binding domain of the protein. The point mutations either alter native p53 conformation or abolish DNA contact. Additionally, cancer cells with p53 mutations are more resistant to chemo-radiation therapies. In order to find activators to reactivate this important protein, a cell-based screen for p53-dependent luciferase-reporter expression was developed. A p53-null H1299 lung cancer cell line was stably co-transfected with a temperature sensitive p53 mutant, p53-A138V, and a p53-responsive BP100-luciferase reporter. This cell model has previously been characterized in a gene chip profiling experiment for p53 activation. By lowering the culture temperature from 37 deg C (mutant p53 conformation) to 32 deg C (w.t. p53 conformation), a 30-60 fold increase in activation of luciferase activity is observed. At assay temperate, 37 deg C, basal reporter expression is very low and after the addition of detection reagent, a luminescent read-out is carried out. NIH Chemical Genomics Center [NCGC] NIH Molecular Libraries Probe Production Centers Network [MLPCN] MLPCN Grant: DA031088-01A1 Assay Provider (PI): Yi Sung, University of Michigan at Ann Arbor
# 5ul of 1000 cells per well are dispensed in all wells except column 4, into white solid-bottom TC-treated Kalypsys plates. The cells are kept in Opti-MEM and supplemented with 10% FBS and dispensed using a Multidrop (Thermo). Then using the Kalypsys pin-tool, 23nl of compounds are pinned. The compounds are starting concentration at 10mM, with 1:5 dilution, 4 points, and the control compound nocodazole is pinned in column 1 at 25mM, 1:3 dilution, in duplicate, 25mM nocodazole is pinned in column 2. Please note, all concentrations are working concentrations. 5ul of 1pM purified luciferase enzyme is dispensed using the Kalypsys dispenser in column 4. Plates are incubated for 24 hrs at 37 deg C, 5% CO2, and 95% humidity. Then 4ul of the detection reagent Amplite (ABD Bioquest) is added using the Kalypsys dispenser. Plates are incubated for 10 min at ambient room temperature and are then read on the ViewLux (Perkin Elmer) using a clear filter for a luminescent read-out.
row,Structure (SMILES),"activity change, positive = activation"
1,COc1ccc(Br)c(C(=O)NCC2(N3CCCCC3)CCCCC2)c1,inactive: -3.33%
2,CN(C)c1cccc(C(=O)NCC2(N(C)C)CCCCC2)c1,inactive: -12.1%
3,CC(C)Oc1ccc(C(=O)NCC2(N(C)C)CCCCC2)cc1,inactive: 2.05%
4,CN(C)C1(CNC(=O)c2ccc(Br)cc2)CCCCC1,inactive: -4.12%
5,COc1cc(C(=O)NCC2(N(C)C)CCCCC2)c([N+](=O)[O-])cc1OC,inactive: 1.76%
6,COc1ccc(Cl)cc1C(=O)NCC1(N(C)C)CCCCC1,inactive: 1.7%
7,COc1cccc(C(=O)NCC2(N3CCCCC3)CCCCC2)c1,inactive: -1.79%
8,O=C(NCC1(N2CCCCC2)CCCCC1)c1cccc(Cl)c1,inactive: -4.33%
9,CN(C)C1CCCC1OC(=O)C(O)(c1ccccc1)c1ccccc1 (stereo not drawn),inactive: -7.29%
10,CN(C)c1ccc(C(=O)NCC2(N(C)C)CCCCC2)cc1,inactive: 0.126%
11,Cc1ccccc1C(=O)NCC1(N2CCCCC2)CCCCC1,inactive: -1.72%
12,O=C(NCC1(N2CCCCC2)CCCCC1)c1cc(F)c(F)cc1Cl,inactive: 2.48%
13,C=CCN1CCN(CCOC(=O)C(O)(c2ccccc2)c2ccccc2)CC1,inactive: -3.04%
14,O=C(NCC1(N2CCCCC2)CCCCC1)c1cccc(Br)c1,inactive: -2.75%
15,Cc1cc(C(=O)NCC2(N3CCCCC3)CCCCC2)ccc1[N+](=O)[O-],inactive: -0.835%
16,CCN1CCCC(OC(=O)C2(O)c3ccccc3C=Cc3ccccc32)C1 (stereo not drawn),inactive: 4.77%
17,COc1ccc(C(=O)NCC2(N(C)C)CCCCC2)cc1,inactive: 1.66%
18,O=C(NCC1(N2CCCCC2)CCCCC1)c1cc([N+](=O)[O-])ccc1Cl,inactive: 8.62%
19,CN1[C@@H]2CC[C@H]1CC(OC(=O)C(O)(c1ccccc1)c1ccccc1)C2 (stereo partly drawn),inactive: -3.04%
20,CC(C)N1C(=O)CC2(CCN(CCOC(=O)C(O)(c3ccccc3)c3ccccc3)CC2)C1=O,inactive: -4.38%
21,COc1cc(SC)ccc1C(=O)NCC1(N(C)C)CCCCC1,inactive: -3.91%
22,CCN(CC)CC(C)C(C)OC(=O)C(O)(c1ccccc1)c1ccccc1 (stereo not drawn),inactive: -4.67%
23,Cc1ccc(C(=O)NCC2(N3CCCCC3)CCCCC2)cc1,inactive: -0.736%

# — PubChem BioAssay AID504706 (National Center for Advancing Translational Sciences (NCATS), 2011)
